Earlier results, collected in patent US10655161B2 (dated 2020).

Conditions: human, in vivo; cited from earlier work

For `Cc1nc(Nc2ncc(C(=O)Nc3c(C)cccc3Cl)s2)cc(N2CCN(CCO)CC2)n1` [Dasatinib, dasatinib], the “Achievable plasma trough concentration” value is listed as “about 100 nM”.
